Data taken from patent publication US20230374038A1, “MODULATORS OF CYSTIC FIBROSIS TRANSMEMBRANE CONDUCTANCE REGULATOR” (VERTEX PHARMACEUTICALS INCORPORATED, priority 2020, published 2023).

By UniProt entry, the sequences of proteins in these tests, tags left out. Chains listed by the source or under a name are the forms on record and can include a tag or linker.
UniProt P13569, with tags, fused parts or gaps DEL508-508: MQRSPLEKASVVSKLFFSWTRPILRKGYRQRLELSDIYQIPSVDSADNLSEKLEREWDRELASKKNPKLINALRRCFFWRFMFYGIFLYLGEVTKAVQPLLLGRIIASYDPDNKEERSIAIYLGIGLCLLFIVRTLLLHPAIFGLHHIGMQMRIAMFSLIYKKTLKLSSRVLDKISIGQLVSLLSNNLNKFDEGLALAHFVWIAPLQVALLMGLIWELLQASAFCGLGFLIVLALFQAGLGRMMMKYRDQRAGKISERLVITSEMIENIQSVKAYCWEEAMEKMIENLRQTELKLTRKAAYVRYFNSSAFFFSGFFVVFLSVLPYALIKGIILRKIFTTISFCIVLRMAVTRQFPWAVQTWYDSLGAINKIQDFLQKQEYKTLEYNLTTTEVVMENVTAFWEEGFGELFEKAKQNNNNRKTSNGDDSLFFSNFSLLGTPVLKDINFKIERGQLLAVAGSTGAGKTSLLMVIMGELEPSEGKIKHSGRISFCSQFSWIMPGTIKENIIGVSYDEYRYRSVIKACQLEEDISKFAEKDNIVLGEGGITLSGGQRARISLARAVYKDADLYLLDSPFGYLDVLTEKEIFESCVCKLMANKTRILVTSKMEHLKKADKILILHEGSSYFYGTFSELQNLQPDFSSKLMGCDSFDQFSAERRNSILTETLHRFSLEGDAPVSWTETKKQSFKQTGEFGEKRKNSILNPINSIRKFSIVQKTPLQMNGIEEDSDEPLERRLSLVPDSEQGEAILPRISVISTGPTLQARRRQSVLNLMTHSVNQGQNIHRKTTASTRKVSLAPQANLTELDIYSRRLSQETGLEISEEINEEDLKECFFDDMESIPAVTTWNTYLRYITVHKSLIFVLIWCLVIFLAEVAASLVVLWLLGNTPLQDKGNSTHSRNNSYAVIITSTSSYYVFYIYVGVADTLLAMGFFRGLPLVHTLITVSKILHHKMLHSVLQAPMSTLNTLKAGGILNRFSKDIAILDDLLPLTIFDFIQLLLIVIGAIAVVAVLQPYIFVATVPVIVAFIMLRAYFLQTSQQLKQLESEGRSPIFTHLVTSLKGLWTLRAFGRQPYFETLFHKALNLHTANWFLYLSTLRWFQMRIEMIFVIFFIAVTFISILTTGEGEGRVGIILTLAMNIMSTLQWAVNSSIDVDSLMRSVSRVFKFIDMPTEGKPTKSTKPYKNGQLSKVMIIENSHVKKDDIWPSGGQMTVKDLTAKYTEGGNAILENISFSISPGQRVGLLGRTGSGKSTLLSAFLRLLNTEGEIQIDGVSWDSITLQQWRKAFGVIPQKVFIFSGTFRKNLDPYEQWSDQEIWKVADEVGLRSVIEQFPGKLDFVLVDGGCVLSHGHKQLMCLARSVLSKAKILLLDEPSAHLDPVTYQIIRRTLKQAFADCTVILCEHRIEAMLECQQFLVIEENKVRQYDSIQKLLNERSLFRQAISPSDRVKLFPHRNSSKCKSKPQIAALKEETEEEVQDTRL

Biological target: CFTR (Homo sapiens, UniProt P13569, DEL508-508)
Test: HBE Assay: Ussing chamber assay of CFTR-mediated short-circuit currents in F508del/MF-HBE cells with 1 μM Ivacaftor
Description: Ussing chamber experiments were performed using human bronchial epithelial (HBE) cells derived from CF subjects heterozygous for F508del and a minimal function CFTR mutation (F508del/MF-HBE) and cultured as previously described (Neuberger T, Burton B, Clark H, Van Goor F Methods Mol Biol 2011:741:39-54). After four days the apical media was removed, and the cells were grown at an air liquid interface for >14 days prior to use.
(§1) To isolate the CFTR-mediated short-circuit (ISC) current, F508del/MF-HBE grown on Costar® Snapwell™ cell culture inserts were mounted in an Ussing chamber and the transepithelial ISC was measured under voltage-clamp recording conditions (Vhold=0 mV) at 37° C. […] The CFTR-mediated ISC (μA/cm^2) for each condition was determined from the peak forskolin response to the steady-state current following inhibition.
The activity of the CFTR corrector compounds on the CFTR-mediated ISC was determined in Ussing chamber studies as described above. […]
as §1

In the case of `Cc1cccc(CC2CCCCC2)c1-c1nc2nc(c1C)OC[C@@H](CC(C)C)N(Cc1ccc(N3CCOCC3)cn1)C(=O)c1cccc(c1)S(=O)(=O)N2`, the “HBE Max Activity” value (18-24 hours, 20% human serum) is reported as “+++ (+++ is >600%)” and the EC50 (read-out: HBE EC50, 18-24 hours, 20% human serum) is reported as < 1000 nM.
